Experimental data from patent US5266600A, “BU-4641V, an antibacterial, antiviral and antitumor antibiotic” (priority 1992, dated 1993).

Legend:
[1] = system: E. faecalis A9808
[2] = system: E. coli Juhl A15119
[3] = system: M. morganii 1510/9
[4] = system: S. aureus FDA 209P; conditions: Nutrient agar, pH 7.0, 32° C., 18 hrs, 10^5 cells/ml
[5] = system: P. rettgeri IPM-14
[6] = system: P. vulgaris IPM-13
[7] = system: S. epidermidis 11-1230
[8] = system: P. mirabilis IFO 3849
[9] = system: C. terrigena IFO 12685
[10] = system: S. aureus Smith
[11] = system: P. aeruginosa KKA19
[12] = system: X. maltophilia GN12873
[13] = system: E. faecium A24817
[14] = system: P. aeruginosa A20599
[15] = system: M. luteus PCI 1001
[16] = system: S. marcescens IPM-15
[17] = system: E. cloacae IPM-12
[18] = system: B. subtilis PCI 219
[19] = system: C. freundii GN7391
[20] = system: X. maltophilia No. 661
[21] = system: S. marcescens IPM-16
[22] = system: P. cepacia No. 651
[23] = system: K. pneumoniae PCI 602
[24] = system: S. aureus IPM-24 (MRSA)
[25] = system: P. aeruginosa IpM-9
[26] = system: P. cepacia A21213
[27] = system: S. epidermidis 11-1168
[28] = system: P. aeruginosa IPM-8
[29] = system: M. morganii 1510
[30] = system: E. coli 255

Structure (SMILES): CC1=CCC2(C)C(=O)C(O)=C(C(C)CO)C2CC=C(C)C(O)CCC(C)=CCC1 (stereo not drawn) [BU-4641V]
- MIC [1]: 100 µg/mL (≈ 248 µM)
- MIC [2]: > 100 µg/mL
- MIC [3]: > 100 µg/mL
- MIC [4]: 25 µg/mL (≈ 62.1 µM)
- MIC [5]: > 100 µg/mL
- MIC [6]: > 100 µg/mL
- MIC [7]: 100 µg/mL (≈ 248 µM)
- MIC [8]: > 100 µg/mL
- MIC [9]: 12.5 µg/mL (≈ 31.1 µM)
- MIC [10]: 100 µg/mL (≈ 248 µM)
- MIC [11]: > 100 µg/mL
- MIC [12]: > 100 µg/mL
- MIC [13]: 100 µg/mL (≈ 248 µM)
- MIC [14]: > 100 µg/mL
- MIC [15]: 100 µg/mL (≈ 248 µM)
- MIC [16]: > 100 µg/mL
- MIC [17]: > 100 µg/mL
- MIC [18]: 100 µg/mL (≈ 248 µM)
- MIC [19]: > 100 µg/mL
- MIC [20]: > 100 µg/mL
- MIC [21]: > 100 µg/mL
- MIC [22]: > 100 µg/mL
- MIC [23]: > 100 µg/mL
- MIC [24]: 100 µg/mL (≈ 248 µM)
- MIC [25]: > 100 µg/mL
- MIC [26]: > 100 µg/mL
- MIC [27]: 50 µg/mL (≈ 124 µM)
- MIC [28]: > 100 µg/mL
- MIC [29]: > 100 µg/mL
- MIC [30]: > 100 µg/mL

Values after ≈ are worked out from the molar mass of the structure shown.
